Values of other authors, collected in article PMC8131289, “Direct Comparison of the Prediction of the Unbound Brain-to-Plasma Partitioning Utilizing Machine Learning Approach and Mechanistic Neuropharmacokinetic Model” (The AAPS Journal, 2021).

Sequences of proteins named here, by UniProt entry; tags and fusion partners are left off. A change or cut given only in a name is not applied to a line headed by its entry.
UniProt Q9UNQ0: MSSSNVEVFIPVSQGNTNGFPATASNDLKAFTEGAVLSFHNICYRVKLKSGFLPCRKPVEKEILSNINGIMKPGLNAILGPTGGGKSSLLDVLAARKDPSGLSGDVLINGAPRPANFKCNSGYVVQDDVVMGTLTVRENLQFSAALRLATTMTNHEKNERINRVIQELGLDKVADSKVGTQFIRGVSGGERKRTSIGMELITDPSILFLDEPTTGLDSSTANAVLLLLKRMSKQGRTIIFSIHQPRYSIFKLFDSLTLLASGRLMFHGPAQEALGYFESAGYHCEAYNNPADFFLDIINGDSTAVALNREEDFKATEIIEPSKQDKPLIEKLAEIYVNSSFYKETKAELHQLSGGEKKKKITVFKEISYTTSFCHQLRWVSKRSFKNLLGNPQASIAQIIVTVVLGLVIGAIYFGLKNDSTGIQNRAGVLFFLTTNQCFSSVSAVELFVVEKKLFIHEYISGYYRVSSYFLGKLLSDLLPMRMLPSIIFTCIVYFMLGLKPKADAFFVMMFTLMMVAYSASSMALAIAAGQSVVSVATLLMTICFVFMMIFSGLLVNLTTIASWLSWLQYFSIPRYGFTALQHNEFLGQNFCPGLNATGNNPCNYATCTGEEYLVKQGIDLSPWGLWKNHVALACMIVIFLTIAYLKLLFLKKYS

Target: BCRP (Homo sapiens, UniProt Q9UNQ0)
Details: MDCK-BCRP cells, external dataset; ref (17)

## Cc1cc2c(s1)Nc1ccccc1N=C2N1CCN(C)CC1 [Olanzapine]
  Efflux ratio BCRP: 1.2
